Protein sequences, listed by entry. Tags and fused reporters are not part of them. Residues count along the entry.
UniProt P53779, 40-402 limits assumed: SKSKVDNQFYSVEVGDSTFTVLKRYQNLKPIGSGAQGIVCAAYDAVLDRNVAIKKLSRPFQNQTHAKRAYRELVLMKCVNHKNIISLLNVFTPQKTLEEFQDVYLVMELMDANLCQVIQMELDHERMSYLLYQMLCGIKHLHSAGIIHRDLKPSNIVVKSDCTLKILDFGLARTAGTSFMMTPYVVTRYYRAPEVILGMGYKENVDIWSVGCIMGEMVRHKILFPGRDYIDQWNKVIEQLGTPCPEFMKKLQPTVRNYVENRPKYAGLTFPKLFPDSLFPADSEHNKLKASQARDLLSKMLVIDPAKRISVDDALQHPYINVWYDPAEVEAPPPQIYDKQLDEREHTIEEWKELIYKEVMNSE
UniProt P12931, whole entry: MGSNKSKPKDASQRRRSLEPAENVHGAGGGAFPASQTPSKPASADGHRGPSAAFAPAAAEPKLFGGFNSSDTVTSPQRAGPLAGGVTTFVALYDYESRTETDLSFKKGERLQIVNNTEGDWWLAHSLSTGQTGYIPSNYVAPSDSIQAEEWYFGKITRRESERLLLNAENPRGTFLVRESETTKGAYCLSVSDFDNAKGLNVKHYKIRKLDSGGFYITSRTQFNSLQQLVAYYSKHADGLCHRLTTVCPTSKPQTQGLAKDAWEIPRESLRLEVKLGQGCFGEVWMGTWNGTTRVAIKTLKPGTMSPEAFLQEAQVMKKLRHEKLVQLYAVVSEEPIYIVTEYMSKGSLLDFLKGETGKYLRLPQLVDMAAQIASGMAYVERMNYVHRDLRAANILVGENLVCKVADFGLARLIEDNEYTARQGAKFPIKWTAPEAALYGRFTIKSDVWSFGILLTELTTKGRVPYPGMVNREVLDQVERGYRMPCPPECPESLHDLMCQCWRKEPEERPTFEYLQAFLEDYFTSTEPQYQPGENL
UniProt P06239, whole entry: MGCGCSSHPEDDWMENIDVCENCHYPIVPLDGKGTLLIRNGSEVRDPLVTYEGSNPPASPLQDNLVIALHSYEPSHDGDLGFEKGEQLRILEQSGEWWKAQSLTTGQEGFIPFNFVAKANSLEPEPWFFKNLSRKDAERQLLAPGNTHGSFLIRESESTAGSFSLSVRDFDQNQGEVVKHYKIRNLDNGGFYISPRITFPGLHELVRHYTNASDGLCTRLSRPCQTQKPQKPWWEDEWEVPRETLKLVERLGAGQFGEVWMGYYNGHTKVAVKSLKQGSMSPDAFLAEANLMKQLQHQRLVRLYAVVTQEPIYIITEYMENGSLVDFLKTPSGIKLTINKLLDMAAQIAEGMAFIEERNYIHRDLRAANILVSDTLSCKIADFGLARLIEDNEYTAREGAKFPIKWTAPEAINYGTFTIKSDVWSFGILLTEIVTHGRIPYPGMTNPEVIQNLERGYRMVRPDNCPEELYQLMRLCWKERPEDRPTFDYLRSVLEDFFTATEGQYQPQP

In US6642227B2, “Inhibitors of c-Jun N-terminal kinases (JNK) and other protein kinases” (Vertex Pharmaceuticals Incorporated, priority 2001, dated 2003):

Tests used:
activated JNK3 = activated JNK3 (Homo sapiens, UniProt P53779); test: JNK inhibition assay (spectrophotometric coupled-enzyme assay); assay type: biochemical; details: read-out: JNK3 Activity (Ki class A-C); activated JNK3 10 nM, 10 μM ATP, 30° C.
Source text: A BLAST search of the EST database using the published JNK3α1 cDNA as a query identified an EST clone (#632588) that contained the entire coding sequence for human JNK3α1. Polymerase chain reactions (PCR) using pfu polymerase (Strategene) were used to introduce restriction sites into the cDNA for cloning into the pET-15B expression vector at the NcoI and BamHI sites. The protein was expressed in E. coli. Due to the poor solubility of the expressed full-length protein (Met 1-Gln 422), an N-terminally truncated protein starting at Ser residue at position 40 (Ser 40) was produced. This truncation corresponds to Ser 2 of JNK1 and JNK2 proteins, and is preceded by a methionine (initiation) and a glycine residue. The glycine residue was added in order to introduce an NcoI site for cloning into the expression vector. In addition, systematic C-terminal truncations were performed by PCR to identify a construct that give rise to diffraction-quality crystals. One such construct encodes amino acid residues Ser40-Glu402 of JNK3α1 and is preceded by Met and Gly residues.
The construct was prepared by PCR using deoxyoligonucleotides: 5′ […] 3′ (forward primer with initiation codon underlined)(SEQ ID NO:1) and 5′ […] 3′ (reverse primer with stop codon underlined)(SEQ ID NO:2) as primers and was confirmed by DNA sequencing. […]

human Src kinase = human Src kinase (Homo sapiens, UniProt P12931); test: Src inhibition assay (A: radioactivity-based or B: spectrophotometric coupled-enzyme assay); details: assay A or B not specified; for Ki: read-out: Src Activity (Ki class A-C)
Experimental: The compounds were evaluated as inhibitors of human Src kinase using either a radioactivity-based assay or spectrophotometric assay.
The compounds were assayed as inhibitors of full length recombinant human Src kinase (from Upstate Biotechnology, cat. no. 14-117) expressed and purified from baculo viral cells. Src kinase activity was monitored by following the incorporation of ^33p from ATP into the tyrosine of a random poly Glu-Tyr polymer substrate of composition, Glu:Tyr=4:1 (Sigma, cat. no. P-0275). The following were the final concentrations of the assay components: 0.05 M HEPES, pH 7.6, 10 mM MgCl2, 2 mM DTT, 0.25 mg/ml BSA, 10 μM ATP (1-2 uCi ^33P-ATP per reaction), 5 mg/ml poly Glu-Tyr, and 1-2 units of recombinant human Src kinase. In a typical assay, all the reaction components with the exception of ATP were pre-mixed and aliquoted into assay plate wells.
Inhibitors dissolved in DMSO were added to the wells to give a final DMSO concentration of 2.5%. The assay plate was incubated at 30° C. for 10 min before initiating the reaction with ^33P-ATP. After 20 min of reaction, the reactions were quenched with 150 μl of 10% trichloroacetic acid (TCA) containing 20 mM Na3PO4. The quenched samples were then transferred to a 96-well filter plate (Whatman, UNI-Filter GF/F Glass Fiber Filter, cat no. 7700-3310) installed on a filter plate vacuum manifold. Filter plates were washed four times with 10% TCA containing 20 mM Na3PO4 and then 4 times with methanol. 200 μl of scintillation fluid was then added to each well. The plates were sealed and the amount of radioactivity associated with the filters was quantified on a TopCount scintillation counter. The radioactivity incorporated was plotted as a function of the inhibitor concentration. The data was fitted to a competitive inhibition kinetics model to get the Ki for the compound.
(§1) The ADP produced from ATP by the human recombinant Src kinase-catalyzed phosphorylation of poly Glu-Tyr substrate was quanitified using a coupled enzyme assay (Fox et al (1998) Protein Sci 7, 2249). In this assay one molecule of NADH is oxidised to NAD for every molecule of ADP produced in the kinase reaction. The disappearance of NADH can be conveniently followed at 340 nm.
(§2) The following were the final concentrations of the assay components: 0.025 M HEPES, pH 7.6, 10 mM MgCl2, 2 mM DTT, 0.25 mg/ml poly Glu-Tyr, and 25 nM of recombinant human Src kinase. Final concentrations of the components of the coupled enzyme system were 2.5 mM phosphoenolpyruvate, 200 μM NADH, 30 μg/ml pyruvate kinase and 10 μg/ml lactate dehydrogenase.
(§3) In a typical assay, all the reaction components with the exception of ATP were pre-mixed and aliquoted into assay plate wells. Inhibitors dissolved in DMSO were added to the wells to give a final DMSO concentration of 2.5%. The assay plate was incubated at 30 C. for 10 min before initiating the reaction with 100 μM ATP. The absorbance change at 340 nm with time, the rate of the reaction, was monitored on a molecular devices plate reader. The data of rate as a function of the inhibitor concentration was fitted to compettive inhibition kinetics model to get the Ki for the compound.

human Lck kinase = human Lck kinase (UniProt P06239); test: Lck inhibition assay (A: radioactivity-based or B: spectrophotometric coupled-enzyme assay); details: read-out: Lck Activity (Ki rating)
Experimental: The compounds were evaluated as inhibitors of human Lck kinase using either a radioactivity-based assay or spectrophotometric assay.
The compounds were assayed as inhibitors of full length bovine thymus Lck kinase (from Upstate Biotechnology, cat. no. 14-106) expressed and purified from baculo viral cells. Lck kinase activity was monitored by following the incorporation of ^33p from ATP into the tyrosine of a random poly Glu-Tyr polymer substrate of composition, Glu:Tyr=4:1 (Sigma, cat. no. P-0275). The following were the final concentrations of the assay components: 0.025 M HEPES, pH 7.6, 10 mM MgCl2, 2 mM DTT, 0.25 mg/ml BSA, 10 μM ATP (1-2 μCi ^33P-ATP per reaction), 5 mg/ml poly Glu-Tyr, and 1-2 units of recombinant human […] kinase. In a typical assay, all the reaction components with the exception of ATP were pre-mixed and aliquoted into assay plate wells. Inhibitors dissolved in DMSO were added to the wells to give a final DMSO concentration of 2.5%. The assay plate was incubated at 30 C. for 10 min before initiating the reaction with ^33P-ATP. After 20 min of reaction, the reactions were quenched with 150 μl of 10% trichloroacetic acid (TCA) containing 20 mM Na3PO4. The quenched samples were then transferred to a 96-well filter plate (Whatman, UNI-Filter GF/F Glass Fiber Filter, cat no. 7700-3310) installed on a filter plate vacuum manifold. Filter plates were washed four times with 10% TCA containing 20 mM Na3PO4 and then 4 times with methanol. 200 μl of scintillation fluid was then added to each well. The plates were sealed and the amount of radioactivity associated with the filters was quantified on a TopCount scintillation counter. The radioactivity incorporated was plotted as a function of the inhibitor concentration. The data was fitted to a competitive inhibition kinetics model to get the Ki for the compound.
as §1, with “Lck” for “Src”
as §2, with “DTT, 5” for “DTT, 0.25”, “and 50” for “and 25”, “human Lck” for “human Src”
as §3, with “30°” for “30”, “150” for “100”, “competitive” for “compettive”

Row | Structure (SMILES) | Ki (human Lck kinase) [nM] | Ki (human Src kinase) [nM] | Ki (activated JNK3) [nM] | Src Activity (percent inhibition class D-F) (human Src kinase; inhibitor concentration not given)
1 | CCOc1sc(-c2ccnc(Nc3ccccc3)n2)c(-c2ccc(C(F)(F)F)cc2)c1C#N | – | – | 100 to 1000 | F (compounds having an activity designated as “F” provided a provided a percent inhibition of between 67% and 100%)
2 | CCOc1cccc(-c2cccc(-c3c(-c4ccnc(Nc5cccc(O)c5)n4)sc(SC)c3C#N)c2)c1 | 100 to 1000 | 100 to 1000 | – | –
3 | CSc1sc(-c2ccnc(Nc3cccc(NS(C)(=O)=O)c3)n2)c(-c2cccnc2)c1C#N | 100 to 1000 | 100 to 1000 | – | –
4 | CSc1sc(-c2nc(Nc3cccc(OCc4ccccc4)c3)ncc2C)c(-c2cccnc2)c1C#N | < 100 | < 100 | – | –
5 | CSc1sc(-c2ccnc(Nc3cccc(O)c3)n2)c(-c2cccc(-c3cccnc3)c2)c1C#N | 100 to 1000 | 100 to 1000 | – | –
6 | CSc1sc(-c2ccnc(Nc3cccc(O)c3)n2)c(-c2cccc(-c3ccc(F)c(Cl)c3)c2)c1C#N | > 1000 | 100 to 1000 | – | –
7 | CSc1sc(-c2ccnc(Nc3cccc(O)c3)n2)c(-c2cccc(-c3cccc(N)c3)c2)c1C#N | < 100 | < 100 | – | –
8 | Cc1cnc(Nc2cccc(O)c2)nc1-c1sc(N(C)C)c(C#N)c1-c1cccc(Oc2ccccc2)c1 | < 100 | < 100 | – | –
9 | CSc1sc(-c2ccnc(Nc3cccc(O)c3)n2)c(-c2cccc(-c3cccc(O)c3)c2)c1C#N | < 100 | < 100 | – | –
10 | CSc1sc(-c2nc(Nc3cccc(OCc4ccccc4)c3)ncc2C)c(-c2ccccc2)c1C#N | < 100 | < 100 | – | –
11 | COc1cccc(-c2c(-c3ccnc(Nc4cccc([N+](=O)[O-])c4)n3)sc(SC)c2C#N)c1 | 100 to 1000 | 100 to 1000 | – | –

Now from value to molecule, other results behind:

Row | Ki (human Lck kinase) [nM] | Ki (human Src kinase) [nM] | Structure (SMILES) | Ki (activated JNK3) [nM] | Src Activity (percent inhibition class D-F) (human Src kinase; inhibitor concentration not given)
12 | < 100 | < 100 | CSc1sc(-c2ccnc(Nc3cccc(O)c3)n2)c(-c2cccc(Br)c2)c1C#N | – | –
13 | < 100 | < 100 | Cc1cnc(Nc2cccc([N+](=O)[O-])c2)nc1-c1sc(N(C)C)c(C#N)c1-c1cccc(Oc2ccccc2)c1 | – | –
14 | < 100 | < 100 | CSc1sc(-c2nc(Nc3cccc(S(N)(=O)=O)c3)ncc2C)c(-c2ccccc2)c1C#N | – | –
15 | < 100 | < 100 | CSc1sc(-c2ccnc(Nc3cccc(OCc4ccccc4)c3)n2)c(-c2cccc(Br)c2)c1C#N | – | –
16 | < 100 | 100 to 1000 | CSc1sc(-c2ccnc(Nc3cccc(O)c3)n2)c(-c2cccc(-c3ccc(C(C)C)cc3)c2)c1C#N [IIa-87] | – | –
17 | < 100 | < 100 | COc1cccc(-c2c(-c3ccnc(Nc4cccc(N)c4)n3)sc(SC)c2C#N)c1 | – | –
18 | < 100 | < 100 | CCS(=O)(=O)Nc1cccc(Nc2nccc(-c3sc(SC)c(C#N)c3-c3cccnc3)n2)c1 | – | –
